Experimental data taken from patent publication US10538558B2, “Inhibition of TCR signaling with peptide variants” (priority 2009, dated 2020).

Assay: Solubility
Conditions: aqueous solutions

With `CC[C@H](C)[C@H](NC(=O)[C@H](CCC(N)=O)NC(=O)[C@H](CO)NC(=O)[C@H](Cc1ccccc1)NC(=O)[C@H](CC(N)=O)NC(=O)[C@H](Cc1ccccc1)NC(=O)CNC(=O)CNC(=O)[C@H](Cc1ccccc1)NC(=O)[C@H](Cc1ccc(O)cc1)NC(=O)[C@H](C)NC(=O)[C@H](CC(C)C)NC(=O)[C@@H](NC(=O)[C@@H]1CCCN1C(=O)[C@@H](NC(=O)[C@H](C)NC(=O)[C@H](Cc1ccc(O)cc1)NC(=O)[C@@H](N)CCSC)[C@@H](C)O)[C@@H](C)O)C(=O)N[C@@H](CC(C)C)C(=O)O` the solubility was “insoluble in aqueous solutions”.
